Data taken from ChEMBL document CHEMBL1139982, “Carbonic anhydrase activators: the first activation study of the human secretory isoform VI with amino acids and amines” (Bioorg Med Chem, 2007).

Assays:
[1] = substrate: N[C@H](Cc1ccccc1)C(=O)O; details: Homo sapiens; 10 uM
[2] = substrate: N[C@@H](Cc1ccccc1)C(=O)O; details: Homo sapiens; 10 uM

B1: Carbonic anhydrase 6 (Homo sapiens), P23280 (protein)
chain: MRALVLLLSLFLLGGQAQHVSDWTYSEGALDEAHWPQHYPACGGQRQSPINLQRTKVRYNPSLKGLNMTGYETQAGEFPMVNNGHTVQISLPSTMRMTVADGTVYIAQQMHFHWGGASSEISGSEHTVDGIRHVIEIHIVHYNSKYKSYDIAQDAPDGLAVLAAFVEVKNYPENTYYSNFISHLANIKYPGQRTTLTGLDVQDMLPRNLQHYYTYHGSLTTPPCTENVHWFVLADFVKLSRTQVWKLENSLLDHRNKTIHNDYRRTQPLNHRVVESNFPNQEYTLGSEFQFYLHKIEEILDYLRRALN
**Q.** With B1 as the protein, how does the kcat [1] read?
**A.** 4.9 10^5/s

**Q.** What about the kcat [2] of the same protein?
**A.** 10.3 10^5/s
